US10010612B2, “Sustained delivery formulations of risperidone compounds” (Indivior UK Limited, priority 2007, dated 2018)

Conditions: limit of solubility

Structure (SMILES): Cc1nc2n(c(=O)c1CCN1CCC(c3noc4cc(F)ccc34)CC1)CCCC2 [Risperidone, 4-[2-[4-(6-fluorobenzo[d]isoxazol-3-yl)-1-piperidyl]ethyl]-3-methyl-2,6-diazabicyclo[4.4.0]deca-1,3-dien-5-one]
- solubility in ethyl lactate: ≤ 7.5 % by weight
